One may read the IC50 as the concentration at which inhibition is half-maximal. High values mean lower potency, low ones higher potency.

Experimental findings from ChEMBL document CHEMBL1137024, “Acyl-CoA: cholesterol acyltransferase inhibitory activities of fatty acid amides isolated from Mylabris phalerate Pallas” (Bioorg Med Chem Lett, 2004) are described below.

The assay deals with T1, Sterol O-acyltransferase 1 (Rattus norvegicus, UniProt O70536).
T1 sequence (O70536 whole entry): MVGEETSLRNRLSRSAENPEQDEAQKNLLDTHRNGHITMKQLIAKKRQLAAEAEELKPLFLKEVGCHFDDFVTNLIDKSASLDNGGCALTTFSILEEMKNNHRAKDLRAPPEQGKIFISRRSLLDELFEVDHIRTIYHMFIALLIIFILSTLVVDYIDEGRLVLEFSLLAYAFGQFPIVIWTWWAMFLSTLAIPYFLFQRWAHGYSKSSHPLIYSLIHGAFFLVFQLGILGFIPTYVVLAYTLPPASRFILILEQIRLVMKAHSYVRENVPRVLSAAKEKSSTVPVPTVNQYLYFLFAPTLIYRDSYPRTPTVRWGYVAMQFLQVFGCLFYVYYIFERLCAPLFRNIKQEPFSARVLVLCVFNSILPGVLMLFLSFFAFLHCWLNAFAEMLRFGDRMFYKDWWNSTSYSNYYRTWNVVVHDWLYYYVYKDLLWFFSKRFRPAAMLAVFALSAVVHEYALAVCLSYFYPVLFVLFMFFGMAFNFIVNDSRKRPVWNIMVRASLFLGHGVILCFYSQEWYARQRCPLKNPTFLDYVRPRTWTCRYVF
The assay is described as follows: Inhibitory activity against rat liver microsomal Acyl coenzyme A:cholesterol acyltransferase. On the technique in general: Liver microsomes are vesicles of endoplasmic reticulum, rich in cytochrome P450 enzymes.
Compound `CCCCC/C=C\C/C=C\CCCCCCCC(N)=O` returned an IC50 of 150 µM.
The figure for `CCCCCCCC/C=C\CCCCCCCC(N)=O` [OLEAMIDE] is 170 µM.
Next, `CCCCCCCCC=CCCCCCCCC(=O)Nc1ccccc1` [OLEIC ACID ANILIDE]: 0.02 µM.
